Assay results taken from ChEMBL document CHEMBL3864133, “Discovery of a Potent and Selective in Vivo Probe (GNE-272) for the Bromodomains of CBP/EP300” (J Med Chem, 2016).

Target: Nucleosome-remodeling factor subunit BPTF (Homo sapiens, UniProt Q12830)

## CC(=O)N1CCc2c(c(Nc3ccc(-c4cnn(C)c4)cc3F)nn2[C@@H]2CCOC2)C1
  IC50: > 20 µM
